# Assay results reported in patent publication US20070072874A1, “Aminoheteroaryl compounds as protein kinase inhibitors” (Sugen, Inc., priority 2003, published 2007).
# Amino acid sequences for entries named in this document (tags omitted). Residues count along the entry.
# UniProt P08581, 1078-1345 limits assumed: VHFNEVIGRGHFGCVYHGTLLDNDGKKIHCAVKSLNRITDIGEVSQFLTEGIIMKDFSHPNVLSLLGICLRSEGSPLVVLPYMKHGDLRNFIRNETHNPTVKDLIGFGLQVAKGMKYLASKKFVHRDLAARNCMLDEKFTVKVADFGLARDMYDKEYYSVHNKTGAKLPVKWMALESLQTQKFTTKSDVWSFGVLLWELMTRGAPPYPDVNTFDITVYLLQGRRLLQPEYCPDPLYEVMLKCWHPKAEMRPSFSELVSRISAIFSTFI
# Target: T1, GST fusion protein containing the Met kinase domain (Homo sapiens, UniProt P08581)
# T1 construct: Purified GST fusion protein containing the Met kinase domain, SUGEN, Inc
# Assay: MET transphosphorylation assay (ELISA, poly(glu-tyr) substrate)
# Type: biochemical
# Description: MET Transphosphorylation Assay
# 8. 10% aqueous (MilliQue H2O) DMSO.
# 11. 4× ATP Reaction Mixture: for 10 mL, mix 0.4 mL 1 M manganese chloride and 0.02 mL 0.1 M ATP in 9.56 mL dH2O.
# 12. 4× Negative Controls Mixture: for 10 mL, mix 0.4 mL 1 M manganese chloride in 9.6 mL dH2O.
# 17. Goat anti-rabbit horseradish peroxidase conjugated antibody, Biosource, Inc.
# 18. ABTS Solution: for 1 L, mix 19.21 g citric acid, 35.49 g Na2HPO4 and 500 mg ABTS with sufficient dH2O to make 1 L.
# 2. Block plate with 150 μL of 5% BSA/PBS for 60 min.
# 4. Add 50 μl of the diluted kinase to all wells. (Purified kinase is diluted with Kinase Dilution Buffer. Final concentration should be 10 ng/well.)
# 5. Add 25 μL of the test compound (in 4% DMSO) or DMSO alone (4% in dH2O) for controls to plate.
# 6. Incubate the kinase/compound mixture for 15 minutes.
# 7. Add 25 μL of 40 mM MnCl2 to the negative control wells.
# 8. Add 25 μL ATP/MnCl2 mixture to the all other wells (except the negative controls). Incubate for 5 min.
# 9. Add 25 μL 500 mM EDTA to stop reaction.
# 10. Wash plate 3× with TBST.
# 11. Add 100 μL rabbit polyclonal anti-Ptyr diluted 1:10,000 in Antibody Dilution Buffer to each well. Incubate, with shaking, at room temperature for one hour.
# 12. Wash plate 3× with TBST.
# 13. […] Add 100 μL per well and incubate at room temperature, with shaking, for one hour.
# 14. Wash plate 1× with PBS.
# 15. Add 100 μl of ABTS/H2O2 solution to each well.
# 16. If necessary, stop the development reaction with the addition of 100 μl of 0.2M HCl per well.
row,IC50 [nM],Structure (SMILES)
1,770,"Nc1ncc(-c2ccc(C(=O)N3CCC[C@@H](CNC4CC4)C3)cc2)cc1OCc1c(Cl)cccc1Cl [Example I-45, {4-[6-Amino-5-(2,6-dichloro-benzyloxy)-pyridin-3-yl]-phenyl}-[(3S)-3-cyclopropylaminomethyl-piperidin-1-yl]-methanone]"
2,6700,"CC(=O)N1CCN(C(=O)c2ccc(-c3cnc(N)c(OCc4ccccc4C(F)(F)F)c3)cc2)CC1 [Example I-189, 1-(4-{4-[6-Amino-5-(2-trifluoromethyl-benzyloxy)-pyridin-3-yl]-benzoyl}-piperazin-1-yl)-ethanone]"
3,59,"CC(Oc1cc(-c2ccc(NS(=O)(=O)CCN(C)C)cc2)cnc1N)c1c(Cl)ccc(F)c1Cl (stereo not drawn) [Example I-298, 2-Dimethylamino-ethanesulfonic acid (4-{6-amino-5-[1-(2,6-dichloro-3-fluoro-phenyl)-ethoxy]-pyridin-3-yl}-phenyl)-amide]"
